Target: T1, varroa mite proctolin receptor (VdProctR) (Varroa destructor, UniProt A0A7T1TE40)
T1 sequence (A0A7T1TE40 1-530): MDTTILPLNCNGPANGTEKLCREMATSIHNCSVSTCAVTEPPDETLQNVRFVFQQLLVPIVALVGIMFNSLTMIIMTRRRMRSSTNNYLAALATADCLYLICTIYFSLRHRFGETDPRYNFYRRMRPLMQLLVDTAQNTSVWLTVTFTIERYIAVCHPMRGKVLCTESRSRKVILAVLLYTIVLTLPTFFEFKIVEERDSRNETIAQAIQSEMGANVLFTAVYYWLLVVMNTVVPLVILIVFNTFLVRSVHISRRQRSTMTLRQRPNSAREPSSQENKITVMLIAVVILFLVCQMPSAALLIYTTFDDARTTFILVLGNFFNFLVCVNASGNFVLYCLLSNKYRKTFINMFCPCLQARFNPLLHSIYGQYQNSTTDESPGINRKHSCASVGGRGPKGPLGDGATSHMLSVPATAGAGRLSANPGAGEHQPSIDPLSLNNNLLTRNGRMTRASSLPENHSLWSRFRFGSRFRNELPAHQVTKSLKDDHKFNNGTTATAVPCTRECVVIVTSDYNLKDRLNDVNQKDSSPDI
Assay: Receptor activity assay: luminescence in cells transiently transfected with varroa mite proctolin receptor
Type: cell-based
Settings: for EC50: EC50 (nM), varroa mite proctolin receptor; for EC50 / Fold change: first set of experiments; for Fold change: EC50 relative to proctolin (0.22 nM)
Protocol: Receptor activity assay: Cells were transiently transfected with pcDNA3.1+ containing the open reading frame of varroa mite proctolin receptor (VdProctR) or empty vector using TransFr-2020 (Mirus Bio). Approximately thirty hours after transfection, the cells were collected and preincubated with coelenterazine h for the functional assay. The ligands in serial dilutions were loaded into 96-well opaque plates. Cells treated with coelenterazine h were injected into each well on an Orion microplate luminometer (Berthold) luminescent plate reader. The luminescence was measured for 20 seconds immediately after the cell injections. Data analyses were performed to determine the accumulated luminescence value for 20 seconds after extraction of blank-well luminescence. A dose-response curve was generated and the EC50 (50% effective concentration) was calculated in Origin 7 (OriginLab).

Row | Compound | EC50 [nM] | Fold change | Activity at high concentrations compared with proctolin (at 1 μM and 10 μM)
1 | CC(C)C[C@H](NC(=O)[C@H](Cc1ccc(O)cc1)NC(=O)[C@H](C)N)C(=O)N1CCC[C@H]1C(=O)N[C@H](C(=O)O)[C@@H](C)O [Analog A1, AYLPT] | 2970 | 13509.09 | 
2 | CC(C)C[C@H](NC(=O)[C@H](C)NC(=O)[C@@H](N)CCCNC(=N)N)C(=O)N1CCC[C@H]1C(=O)N[C@H](C(=O)O)[C@@H](C)O [Analog A2, RALPT] | 3190 | 14486.36 | 
3 | C[C@H](NC(=O)[C@H](Cc1ccc(O)cc1)NC(=O)[C@@H](N)CCCNC(=N)N)C(=O)N1CCC[C@H]1C(=O)N[C@H](C(=O)O)[C@@H](C)O [Analog A3, RYAPT] | 84.3 | 383.05 | 
4 | CC(C)C[C@H](NC(=O)[C@H](Cc1ccc(O)cc1)NC(=O)[C@@H](N)CCCNC(=N)N)C(=O)N[C@@H](C)C(=O)N[C@H](C(=O)O)[C@@H](C)O [Analog A4, RYLAT] | 3.54 | 16.09 | higher than that of proctolin
5 | CC(C)C[C@H](NC(=O)[C@H](Cc1ccc(O)cc1)NC(=O)[C@@H](N)CCCNC(=N)N)C(=O)N1CCC[C@H]1C(=O)N[C@@H](C)C(=O)O [Analog A5, RYLPA] | 47.4 | 215.64 | 

— patent US20220338471A1, “HONEY BEE-SAFE ACARICIDAL COMPOUNDS” (Kansas State University Research Foundation, priority 2019, published 2022)
